Experimental data as given in patent US20220202743A1, “PHARMACEUTICAL COMPOSITION FOR PREVENTING OR TREATING DEGENERATIVE BRAIN DISEASE USING AUTOPHAGY ACTIVATION” (VASTHERA CO. LTD., priority 2019, published 2022).

Amino acid sequences for entries named in this document (tags omitted).
UniProt P21796, whole entry, species assumed: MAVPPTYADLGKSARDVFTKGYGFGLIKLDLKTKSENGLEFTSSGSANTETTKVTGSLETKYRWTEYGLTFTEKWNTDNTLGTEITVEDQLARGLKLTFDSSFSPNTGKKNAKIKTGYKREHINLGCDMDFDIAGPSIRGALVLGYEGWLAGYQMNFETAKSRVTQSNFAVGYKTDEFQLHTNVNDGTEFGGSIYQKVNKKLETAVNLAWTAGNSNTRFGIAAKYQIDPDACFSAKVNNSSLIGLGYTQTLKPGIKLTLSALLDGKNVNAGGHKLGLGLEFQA

How the values were obtained:
[1] = target: VDAC1 (Homo sapiens, UniProt P21796); details: DARTS, pronase 20 minutes or more, FIG. 3B
[2] = test system: MEFs; details: FIG. 3H

For `CN[C@H]1CC[C@@H](c2ccc(Cl)c(Cl)c2)c2ccccc21` [sertraline], the “stability of VDAC1 against pronase at nanomolecule concentration” value [1] was “not VDAC1”, the “cell proliferation maintained in MEFs without VDAC1” value ([2]; VDAC1−/− MEFs, 72nd hour, about 10 μM) was at least 50% and the “cell proliferation of wild-type MEFs” value ([2]; wild-type MEFs) was “continuously inhibited”.
